Source: PubChem BioAssay AID588524 (Sanford-Burnham Center for Chemical Genomics, 2011)

Chains of the proteins cited; added tags and fusions are not shown.
UniProt O14727, whole entry: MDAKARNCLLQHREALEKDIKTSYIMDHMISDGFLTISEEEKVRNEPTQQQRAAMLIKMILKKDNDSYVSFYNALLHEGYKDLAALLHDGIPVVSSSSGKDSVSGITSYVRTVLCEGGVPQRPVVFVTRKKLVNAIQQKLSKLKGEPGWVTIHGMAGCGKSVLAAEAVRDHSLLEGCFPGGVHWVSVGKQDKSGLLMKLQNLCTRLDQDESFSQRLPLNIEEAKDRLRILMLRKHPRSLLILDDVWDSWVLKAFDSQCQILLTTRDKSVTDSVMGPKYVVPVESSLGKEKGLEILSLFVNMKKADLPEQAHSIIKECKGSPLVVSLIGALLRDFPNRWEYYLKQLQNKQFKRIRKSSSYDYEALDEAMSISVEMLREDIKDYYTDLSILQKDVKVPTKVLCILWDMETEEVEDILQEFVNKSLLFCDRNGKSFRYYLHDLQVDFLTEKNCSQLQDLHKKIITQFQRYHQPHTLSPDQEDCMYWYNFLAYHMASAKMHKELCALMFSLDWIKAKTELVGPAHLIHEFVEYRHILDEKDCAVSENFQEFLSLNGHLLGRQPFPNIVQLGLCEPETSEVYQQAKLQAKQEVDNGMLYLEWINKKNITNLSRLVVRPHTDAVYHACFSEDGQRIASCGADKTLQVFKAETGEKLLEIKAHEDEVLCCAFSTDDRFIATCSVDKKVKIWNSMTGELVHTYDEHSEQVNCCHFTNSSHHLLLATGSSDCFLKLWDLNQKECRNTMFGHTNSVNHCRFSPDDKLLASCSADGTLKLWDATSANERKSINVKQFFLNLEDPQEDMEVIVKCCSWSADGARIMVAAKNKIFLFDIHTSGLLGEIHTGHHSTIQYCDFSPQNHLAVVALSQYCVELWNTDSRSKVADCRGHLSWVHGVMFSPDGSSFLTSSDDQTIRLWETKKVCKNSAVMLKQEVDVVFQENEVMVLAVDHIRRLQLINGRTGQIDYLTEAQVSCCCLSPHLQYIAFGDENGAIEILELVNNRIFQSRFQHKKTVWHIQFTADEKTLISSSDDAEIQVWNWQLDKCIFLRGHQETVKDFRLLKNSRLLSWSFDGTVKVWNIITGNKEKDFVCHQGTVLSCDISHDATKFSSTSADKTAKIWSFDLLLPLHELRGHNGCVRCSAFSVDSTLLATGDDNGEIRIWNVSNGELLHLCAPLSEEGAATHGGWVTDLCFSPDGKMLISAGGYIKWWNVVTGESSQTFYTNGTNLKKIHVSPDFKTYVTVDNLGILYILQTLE

Molecular target: Apoptotic protease-activating factor 1 (Homo sapiens) (UniProt O14727)
Assay: Apaf-1 assay inhibition concentration curves – fluorescence, uHTS hits, dose response (AID 588524)
Conditions: Apaf-1 apoptosome assay, fluorescence read-out

For `CC1=C2N=C(C=C3N=C(C(C)=C4[N-][C@@](C)([C@@H]5N=C1[C@](C)(CCC(=O)NC[C@@H](C)OP(=O)([O-])O[C@H]1[C@@H](O)[C@@H](n6cnc7cc(C)c(C)cc76)O[C@@H]1CO)[C@H]5CC(N)=O)[C@@](C)(CC(N)=O)[C@@H]4CCC(N)=O)[C@@](C)(CC(N)=O)[C@@H]3CCC(N)=O)C(C)(C)[C@@H]2CCC(N)=O.[C-]#N.[Co+3]`, which IC50 is on record?
Its IC50 is 443 nM.
